What was measured:
[1] = biological target: Sodium-dependent dopamine transporter (Homo sapiens, UniProt Q01959)
[2] = biological target: Sodium-dependent noradrenaline transporter (Homo sapiens, UniProt P23975)

Protein sequences, listed by entry. Tags and fused reporters are not part of them.
UniProt Q01959, whole entry: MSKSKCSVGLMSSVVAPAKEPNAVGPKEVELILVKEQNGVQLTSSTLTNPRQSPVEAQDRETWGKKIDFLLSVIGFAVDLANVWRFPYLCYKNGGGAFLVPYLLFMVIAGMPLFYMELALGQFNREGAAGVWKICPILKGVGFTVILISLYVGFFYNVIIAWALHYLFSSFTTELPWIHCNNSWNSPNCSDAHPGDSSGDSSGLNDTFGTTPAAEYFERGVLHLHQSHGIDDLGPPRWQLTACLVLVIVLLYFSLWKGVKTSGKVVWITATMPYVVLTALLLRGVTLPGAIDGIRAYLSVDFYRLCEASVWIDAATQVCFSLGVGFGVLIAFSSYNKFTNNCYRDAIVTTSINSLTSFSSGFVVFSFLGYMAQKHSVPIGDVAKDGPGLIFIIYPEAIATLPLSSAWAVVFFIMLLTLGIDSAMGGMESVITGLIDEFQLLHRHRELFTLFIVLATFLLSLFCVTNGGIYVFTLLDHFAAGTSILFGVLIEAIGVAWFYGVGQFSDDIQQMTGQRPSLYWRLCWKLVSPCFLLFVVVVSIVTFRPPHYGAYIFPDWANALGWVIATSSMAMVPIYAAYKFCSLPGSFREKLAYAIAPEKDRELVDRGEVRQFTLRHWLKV
UniProt P23975, whole entry: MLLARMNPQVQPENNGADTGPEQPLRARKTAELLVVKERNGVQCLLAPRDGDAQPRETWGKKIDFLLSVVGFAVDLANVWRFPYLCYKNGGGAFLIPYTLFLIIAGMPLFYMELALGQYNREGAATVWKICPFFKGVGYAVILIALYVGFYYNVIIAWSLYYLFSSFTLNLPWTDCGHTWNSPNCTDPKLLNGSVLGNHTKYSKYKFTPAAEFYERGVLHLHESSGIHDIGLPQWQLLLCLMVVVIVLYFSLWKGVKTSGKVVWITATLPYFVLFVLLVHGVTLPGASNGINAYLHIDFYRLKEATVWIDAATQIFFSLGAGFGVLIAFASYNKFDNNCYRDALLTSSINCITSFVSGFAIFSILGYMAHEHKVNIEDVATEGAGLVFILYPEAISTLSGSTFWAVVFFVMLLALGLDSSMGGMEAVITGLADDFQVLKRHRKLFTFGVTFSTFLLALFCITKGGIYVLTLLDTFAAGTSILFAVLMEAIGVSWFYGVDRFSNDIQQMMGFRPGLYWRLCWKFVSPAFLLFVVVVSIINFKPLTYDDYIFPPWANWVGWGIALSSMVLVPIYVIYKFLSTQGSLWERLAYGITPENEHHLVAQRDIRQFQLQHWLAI

Q: For CN(C)CCCN1c2ccccc2CCc2ccccc21, which Ki [1] is on record?
A: > 10 µM

Q: What about the Ki [2] of the same compound?
A: 0.098 µM
